Conditions: heat dried, different temperatures and drying methods

NH2—Cyc-DAla-Ser[Gal-Sial]-DAla-Arg-PEG-Biotin [MOL600c]
functionality retained up to: ≤ 4 week
performance appears to decline at: 8 weeks
